Data: patent US7507717B2 (Xenome Ltd., priority 2002, dated 2009)

Protein sequences, listed by entry. Tags and fused reporters are not part of them.
UniProt P23975, whole entry: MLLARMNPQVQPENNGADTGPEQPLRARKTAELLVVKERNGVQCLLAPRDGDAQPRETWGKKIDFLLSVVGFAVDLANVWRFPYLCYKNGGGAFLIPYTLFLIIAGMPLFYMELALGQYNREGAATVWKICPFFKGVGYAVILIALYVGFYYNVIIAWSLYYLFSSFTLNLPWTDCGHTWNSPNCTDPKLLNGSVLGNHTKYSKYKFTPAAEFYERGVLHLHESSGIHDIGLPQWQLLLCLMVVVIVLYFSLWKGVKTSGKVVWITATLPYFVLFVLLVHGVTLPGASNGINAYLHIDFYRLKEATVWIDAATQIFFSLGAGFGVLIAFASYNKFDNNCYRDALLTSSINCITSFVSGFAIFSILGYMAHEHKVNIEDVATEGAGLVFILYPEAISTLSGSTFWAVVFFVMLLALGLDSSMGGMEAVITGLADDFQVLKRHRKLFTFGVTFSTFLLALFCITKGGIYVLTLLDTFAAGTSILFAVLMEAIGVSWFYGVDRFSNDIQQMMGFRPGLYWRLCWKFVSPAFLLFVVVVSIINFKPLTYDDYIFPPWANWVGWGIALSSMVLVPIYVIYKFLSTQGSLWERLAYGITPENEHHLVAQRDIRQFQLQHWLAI

target: T1, human noradrenaline transporter (hNET) (Homo sapiens, UniProt P23975); experiment: biochemical; type: binding; conditions: Av IC50 Displacement of 3H-nisoxetine from hNET
T1 construct: expressed in transfected cells; host or cells: COS-7 cells (ATCC), transient transfection with metafectene

SMILES	IC50
COc1ccc(C[C@@H]2NC(=O)CNC(=O)[C@@H]3CSSC[C@H](NC(=O)[C@H](CC(C)C)NC(=O)[C@H](CCCCN)NC2=O)C(=O)N[C@@H](CCCNC(=N)N)C(=O)N[C@@H](Cc2ccc(O)cc2)C(=O)N[C@H](C(N)=O)CSSC[C@H](NC(=O)[C@H](CC(C)C)NC(=O)CNC(=O)[C@@H](N)Cc2c[nH]c4ccccc24)C(=O)N3)cc1 [compound 31]	87.1 nM
COc1ccc(C[C@@H]2NC(=O)CNC(=O)[C@@H]3CSSC[C@H](NC(=O)[C@H](CC(C)C)NC(=O)[C@H](CCCCN)NC2=O)C(=O)N[C@@H](CCCNC(=N)N)C(=O)N2C[C@H](O)C[C@H]2C(=O)N[C@H](C(N)=O)CSSC[C@H](NC(=O)[C@H](CC(C)C)NC(=O)CNC(=O)[C@@H](N)Cc2c[nH]c4ccccc24)C(=O)N3)cc1 [compound 35]	95.5 nM
CC(C)C[C@@H]1NC(=O)[C@H](CCCCN)NC(=O)[C@H](Cc2ccc(O)cc2)NC(=O)CNC(=O)[C@@H]2CSSC[C@H](NC1=O)C(=O)N[C@@H](Cc1c[nH]cn1)C(=O)N1CSC[C@H]1C(=O)N[C@H](C(N)=O)CSSC[C@H](NC(=O)[C@@H](NC(=O)CNC(=O)[C@@H](N)CC(N)=O)C(C)C)C(=O)N2 [compound 158]	4680 nM
CCCC[C@@H]1NC(=O)[C@H](Cc2c[nH]cn2)NC(=O)[C@@H]2CSSC[C@H](NC(=O)[C@@H](NC(=O)[C@@H](NC(=O)CNC(=O)[C@@H](N)CC(N)=O)C(C)C)CSSC[C@@H](C(N)=O)NC1=O)C(=O)NCC(=O)N[C@@H](Cc1ccc(O)cc1)C(=O)N[C@@H](CCCCN)C(=O)N[C@@H](CC(C)C)C(=O)N2 [compound 162]	6460 nM
CC(C)CC[C@@H]1NC(=O)[C@H](CCCCN)NC(=O)[C@H](Cc2ccc(O)cc2)NC(=O)CNC(=O)[C@@H]2CSSC[C@H](NC1=O)C(=O)N[C@@H](Cc1c[nH]cn1)C(=O)N1C[C@H](O)C[C@H]1C(=O)N[C@H](C(N)=O)CSSC[C@H](NC(=O)[C@@H](NC(=O)CNC(=O)C[C@@H](N)CCCCN)C(C)C)C(=O)N2 [compound 49]	135 nM
CC(C)C[C@@H]1NC(=O)[C@H](CCCCN)NC(=O)[C@H](CCC(=O)O)NC(=O)CNC(=O)[C@@H]2CSSC[C@H](NC1=O)C(=O)N[C@@H](Cc1c[nH]cn1)C(=O)N1C[C@H](O)C[C@H]1C(=O)N[C@H](C(N)=O)CSSC[C@H](NC(=O)[C@@H](NC(=O)CNC(=O)[C@@H]1CCC(=O)N1)C(C)C)C(=O)N2 [compound 197]	191000 nM
COc1ccc(C[C@@H]2NC(=O)CNC(=O)[C@@H]3CSSC[C@H](NC(=O)[C@H](CC(C)C)NC(=O)[C@H](CCCCN)NC2=O)C(=O)N[C@@H](CCCNC(=N)N)C(=O)N[C@@H](C)C(=O)N[C@H](C(N)=O)CSSC[C@H](NC(=O)[C@H](CC(C)C)NC(=O)CNC(=O)[C@H](CCCNC(=N)N)NC(=O)[C@H](N)Cc2c[nH]c4ccccc24)C(=O)N3)cc1 [compound 24]	44.7 nM
CC(=O)N[C@@H](CCCCN)CC(=O)NCC(=O)N[C@H](C(=O)N[C@H]1CSSC[C@@H](C(N)=O)NC(=O)[C@@H]2C[C@@H](O)CN2C(=O)[C@H](Cc2c[nH]cn2)NC(=O)[C@@H]2CSSC[C@H](NC1=O)C(=O)NCC(=O)N[C@@H](Cc1ccc(O)cc1)C(=O)N[C@@H](CCCCN)C(=O)N[C@@H](CC(C)C)C(=O)N2)C(C)C [compound 114]	1100 nM
CCCC[C@H](NC(=O)CNC(=O)[C@@H](N)CC(N)=O)C(=O)N[C@H]1CSSC[C@@H](C(N)=O)NC(=O)[C@@H]2C[C@@H](O)CN2C(=O)[C@H](Cc2c[nH]cn2)NC(=O)[C@@H]2CSSC[C@H](NC1=O)C(=O)NCC(=O)N[C@@H](Cc1ccc(O)cc1)C(=O)N[C@@H](CCCCN)C(=O)N[C@@H](CC(C)C)C(=O)N2 [compound 112]	1020 nM
CC(C)C[C@@H]1NC(=O)[C@H](CCCCN)NC(=O)[C@H](Cc2ccc(O)cc2)NC(=O)CNC(=O)[C@@H]2CSSC[C@H](NC1=O)C(=O)N[C@@H](Cc1c[nH]cn1)C(=O)N1C[C@H](O)C[C@H]1C(=O)N[C@H](C(N)=O)CSSC[C@H](NC(=O)[C@@H](NC(=O)CNC(=O)[C@H](CCCNC(=N)N)NC(=O)[C@@H](N)Cc1c[nH]c3ccccc13)C(C)C)C(=O)N2 [compound 30]	85.1 nM
COc1ccc(C[C@@H]2NC(=O)CNC(=O)[C@@H]3CSSC[C@H](NC(=O)[C@H](CC(C)C)NC(=O)[C@H](CCCCN)NC2=O)C(=O)N[C@@H](CCCNC(=N)N)C(=O)N[C@@H](C)C(=O)N[C@H](C(N)=O)CSSC[C@H](NC(=O)[C@@H](NC(=O)CNC(=O)[C@H](CCCNC(=N)N)NC(=O)[C@@H](N)Cc2c[nH]c4ccccc24)C(C)C)C(=O)N3)cc1 [compound 29]	74.1 nM
CCCC[C@H](NC(=O)CNC(=O)C[C@@H](N)CCCCN)C(=O)N[C@H]1CSSC[C@@H](C(N)=O)NC(=O)[C@@H]2C[C@@H](O)CN2C(=O)[C@H](Cc2c[nH]cn2)NC(=O)[C@@H]2CSSC[C@H](NC1=O)C(=O)NCC(=O)N[C@@H](Cc1ccc(O)cc1)C(=O)N[C@@H](CCCCN)C(=O)N[C@@H](CC(C)C)C(=O)N2 [compound 58]	174 nM
COc1ccc(C[C@@H]2NC(=O)CNC(=O)[C@@H]3CSSC[C@H](NC(=O)[C@H](CC(C)C)NC(=O)[C@H](CCCCN)NC2=O)C(=O)N[C@@H](Cc2c[nH]cn2)C(=O)N2C[C@H](O)C[C@H]2C(=O)N[C@H](C(N)=O)CSSC[C@H](NC(=O)[C@@H](NC(=O)CNC(=O)[C@H](CCCCN)NC(=O)[C@@H](N)Cc2c[nH]c4ccccc24)C(C)C)C(=O)N3)cc1 [compound 21]	39.8 nM
CC(C)C[C@@H]1NC(=O)[C@H](CCCCN)NC(=O)[C@H](Cc2ccc(O)cc2)NC(=O)CNC(=O)[C@@H]2CSSC[C@H](NC1=O)C(=O)N[C@@H](Cc1c[nH]cn1)C(=O)N1C[C@H](O)C[C@H]1C(=O)N[C@H](C(N)=O)CSSC[C@H](NC(=O)[C@@H](NC(=O)[C@H](CC(=O)O)NC(=O)[C@@H]1CCC(=O)N1)C(C)C)C(=O)N2 [compound 154]	3980 nM
CC(C)C[C@@H]1NC(=O)[C@H](CCCCN)NC(=O)[C@H](Cc2ccc(O)cc2)NC(=O)CNC(=O)[C@@H]2CSSC[C@H](NC1=O)C(=O)N[C@@H](Cc1c[nH]cn1)C(=O)N1C[C@H](O)C[C@H]1C(=O)N[C@H](C(=O)N[C@@H](Cc1ccc(O)cc1)C(N)=O)CSSC[C@H](NC(=O)[C@@H](NC(=O)CNC(=O)[C@H](CCCNC(=N)N)NC(=O)[C@@H](N)Cc1c[nH]c3ccccc13)C(C)C)C(=O)N2 [compound 43]	123 nM
CC(C)C[C@@H]1NC(=O)[C@H](CCCCN)NC(=O)[C@H](Cc2ccc(O)cc2)NC(=O)CNC(=O)[C@@H]2CSSC[C@H](NC1=O)C(=O)N[C@@H](Cc1c[nH]cn1)C(=O)N1C[C@H](O)C[C@H]1C(=O)N[C@H](C(N)=O)CSSC[C@H](NC(=O)[C@H](C)NC(=O)CNC(=O)[C@@H](N)CC(N)=O)C(=O)N2 [compound 153]	3720 nM
COc1ccc(C[C@@H]2NC(=O)CNC(=O)[C@@H]3CSSC[C@H](NC(=O)[C@H](CC(C)C)NC(=O)[C@H](CCCCN)NC2=O)C(=O)N[C@@H](CCCNC(=N)N)C(=O)N2C[C@H](O)C[C@H]2C(=O)N[C@H](C(=O)N[C@@H](Cc2ccc(O)cc2)C(N)=O)CSSC[C@H](NC(=O)[C@H](CC(C)C)NC(=O)CNC(=O)[C@@H]2CCC(=O)N2)C(=O)N3)cc1 [compound 65]	195 nM
CC[C@H](C)[C@@H]1NC(=O)CNC(=O)[C@@H]2CSSC[C@H](NC(=O)[C@H](CC(C)C)NC(=O)[C@H](CCCCN)NC1=O)C(=O)N[C@@H](Cc1c[nH]cn1)C(=O)N1C[C@H](O)C[C@H]1C(=O)N[C@H](C(N)=O)CSSC[C@H](NC(=O)[C@@H](NC(=O)CNC(=O)[C@@H]1CCC(=O)N1)C(C)C)C(=O)N2 [compound 198]	214000 nM
CC(C)C[C@@H]1NC(=O)[C@H](CCCCN)NC(=O)[C@H](Cc2ccc(O)cc2)NC(=O)CNC(=O)[C@@H]2CSSC[C@H](NC1=O)C(=O)N[C@@H](CCCNC(=N)N)C(=O)N1C[C@H](O)C[C@H]1C(=O)N[C@H](C(N)=O)CSSC[C@H](NC(=O)[C@@H](NC(=O)CNC(=O)[C@H](CC(N)=O)NC(=O)[C@@H](N)Cc1c[nH]c3ccccc13)C(C)C)C(=O)N2 [compound 33]	87.1 nM
CC(C)C[C@@H]1NC(=O)[C@H](CCCCN)NC(=O)[C@H](Cc2ccc(O)cc2)NC(=O)CNC(=O)[C@@H]2CSSC[C@H](NC1=O)C(=O)N[C@@H](CCCNC(=N)N)C(=O)N1C[C@H](O)C[C@H]1C(=O)N[C@H](C(N)=O)CSSC[C@H](NC(=O)[C@@H](NC(=O)CNC(=O)[C@H](CC(N)=O)NC(=O)[C@@H](N)Cc1ccc(O)cc1)C(C)C)C(=O)N2 [compound 68]	219 nM
CC(C)C[C@@H]1NC(=O)[C@H](CCCCN)NC(=O)[C@H](Cc2ccc(O)cc2)NC(=O)CNC(=O)[C@@H]2CSSC[C@H](NC1=O)C(=O)N[C@@H](Cc1c[nH]cn1)C(=O)N1Cc3ccccc3C[C@H]1C(=O)N[C@H](C(N)=O)CSSC[C@H](NC(=O)[C@@H](NC(=O)CNC(=O)C[C@@H](N)CCCCN)C(C)C)C(=O)N2 [compound 111]	977 nM
COc1ccc(C[C@@H]2NC(=O)CNC(=O)[C@@H]3CSSC[C@H](NC(=O)[C@H](CC(C)C)NC(=O)[C@H](CCCCN)NC2=O)C(=O)N[C@@H](CCCNC(=N)N)C(=O)N[C@@H](C)C(=O)N[C@H](C(N)=O)CSSC[C@H](NC(=O)[C@H](Cc2c[nH]c4ccccc24)NC(=O)[C@H](Cc2ccccc2)NC(=O)CNC(=O)CNC(=O)[C@@H](N)Cc2ccccc2)C(=O)N3)cc1 [compound 70]	224 nM
CC(C)CC[C@@H]1NC(=O)[C@H](CCCCN)NC(=O)[C@H](Cc2ccc(O)cc2)NC(=O)CNC(=O)[C@@H]2CSSC[C@H](NC1=O)C(=O)N[C@@H](Cc1c[nH]cn1)C(=O)N1CCC[C@H]1C(=O)N[C@H](C(N)=O)CSSC[C@H](NC(=O)[C@@H](NC(=O)CNC(=O)C[C@@H](N)CCCCN)C(C)C)C(=O)N2 [compound 76]	263 nM
CC(C)C[C@@H]1NC(=O)[C@H](CCCNC(=N)N)NC(=O)[C@H](Cc2ccc(O)cc2)NC(=O)CNC(=O)[C@@H]2CSSC[C@H](NC1=O)C(=O)N[C@@H](Cc1c[nH]cn1)C(=O)N1C[C@H](O)C[C@H]1C(=O)N[C@H](C(N)=O)CSSC[C@H](NC(=O)[C@@H](NC(=O)CNC(=O)[C@@H](N)CC(N)=O)C(C)C)C(=O)N2 [compound 177]	22900 nM
CC(=O)N[C@@H](CC(N)=O)C(=O)NCC(=O)N[C@H](C(=O)N[C@H]1CSSC[C@@H](C(N)=O)NC(=O)[C@@H]2C[C@@H](O)CN2C(=O)[C@H](Cc2c[nH]cn2)NC(=O)[C@@H]2CSSC[C@H](NC1=O)C(=O)NCC(=O)N[C@@H](Cc1ccc(O)cc1)C(=O)N[C@@H](CCCCN)C(=O)N[C@@H](CC(C)C)C(=O)N2)C(C)C [compound 143]	2570 nM
